Target: T1, NMBR (Mus musculus, UniProt O54799)
T1 construct: NMBR is expressed in the most superficial layer of the dorsal spinal cord; endogenous in cells; host or cells: living wild-type mice, spinal cord (intrathecal injection)
T1 sequence (O54799 1-390): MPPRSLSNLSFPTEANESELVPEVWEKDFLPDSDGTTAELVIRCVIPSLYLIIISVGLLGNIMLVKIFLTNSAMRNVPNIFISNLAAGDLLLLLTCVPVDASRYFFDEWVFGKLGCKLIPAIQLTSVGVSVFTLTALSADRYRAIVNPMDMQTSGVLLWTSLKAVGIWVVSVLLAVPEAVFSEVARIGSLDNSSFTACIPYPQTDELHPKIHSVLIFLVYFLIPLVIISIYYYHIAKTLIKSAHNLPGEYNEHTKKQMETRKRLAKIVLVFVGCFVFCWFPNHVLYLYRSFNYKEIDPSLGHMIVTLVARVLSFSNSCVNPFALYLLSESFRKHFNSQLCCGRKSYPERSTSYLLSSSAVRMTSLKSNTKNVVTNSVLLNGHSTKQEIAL
Set-up: species or system mice
Conditions: in vivo

Substance: neuromedin B [NMB]
- scratching behaviors after i.t. NMB: induced robust scratching behaviors

— patent US9636379B2, “Compositions and methods for treating pruritus” (Washington University, priority 2007, dated 2017)
